Measured affinities in a library of Ab-14 heavy chain variants

All variants were tested on one target, the spike HR2 peptide PDVDLGDISGINAS (SARS-CoV-2).

Each scFv is VH, three GGGGS repeats, VL, as in the parent Ab-14, and differs from it in the CDRs of the heavy chain only.
VH: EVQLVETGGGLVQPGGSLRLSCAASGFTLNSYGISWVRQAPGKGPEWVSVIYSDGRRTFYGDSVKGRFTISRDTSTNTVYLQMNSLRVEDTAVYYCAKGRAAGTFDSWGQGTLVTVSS
VL: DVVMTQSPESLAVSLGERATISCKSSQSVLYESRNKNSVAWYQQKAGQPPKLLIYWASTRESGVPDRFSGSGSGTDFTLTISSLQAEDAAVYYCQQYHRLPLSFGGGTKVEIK

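The parent was found by panning a naive human phage display library on the peptide. Designed CDR sequences, proposed from the first random library and measured here. Group labels follow the data file (Ctrl: baseline library sampled from a position-specific scoring matrix, with some repeated check sequences; Rand: our label for a block that the file lists under HC and that is probably the random mutants of the ten best first-round binders; En: ensemble of fine-tuned language models; GP: Gaussian process model; GPLM: also part of the Gaussian process libraries; HC: hill climbing; Gen: genetic algorithm; Gibbs: Gibbs sampling; a sequence that several methods proposed may carry one label only). The scFvs were displayed on barcoded MATa yeast, the peptide on MATalpha yeast. Mating (16 h, 30 °C) was followed by selection of diploids and sequencing of their barcodes. Each replicate has its own calibration line, from reference interactions of the BCL2 family. Mating was done six times.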

Each variant is given by its three heavy chain CDRs, as the data file delimits them; those of the parent are GFTLNSYGIS, VIYSDGRRTFYGDSVK, GRAAGTFDS. Variants here have at most six changes. Each Kd is an estimate from the mating assay, the geometric mean of the replicates in which the pair was seen; lower is stronger. "no signal" means that the variant was in the library but no mating with the target was seen in any replicate; the authors take this as a sign of poor binding, and no number exists. Values of this round are not directly comparable with the first-round values of the same sequences. Some sequences occur more than once in the pool; their replicates are pooled. Of ten entries with the parent sequence, four were seen in most replicates (averages 2.2 nM to 240 nM), three in one and three in none, so single entries are noisy. In the paper, a design with two or fewer of six values counts as a poor binder. Three control strains display no target. For all heavy chain designs, 1% of the pairings with them gave a signal, with a median of 120 nM and one signal in twenty below 7.0 nM, so weak values seen in few replicates may be background.

For GFTLNSYGIS / VIYSDGRRTFYSDSVK / GQVAGKFDS [GP_HC], the assay gave 9.7 nM (1 of 6 replicates). With GFQLNEYGIS / VIYSDGRRTFYADSVK / GKAAGTFDK [GP_Gibbs] the result was 1.4 nM (6 of 6 replicates). With GFTLNSYGIS / VIYADGRRTFYGDSVK / GRAAGTFES [Ctrl+GPLM_Gen] the result was 19 nM (11 of 12 replicates). Variant GFTLNEYGIS / VIYSDGRRTFYEDSVK / GRFAGTFDS [GPLM_HC] showed 2.7 nM (5 of 6 replicates). For GFQLNEYGIS / VIYSDGRRTFYGDSVK / GRNAGTFDS [GP_Gen], the assay gave 1.6 nM (6 of 6 replicates). Variant GFELNSYGIS / VIYSDGRRTFYMDSVK / GRTAGTFDS [GP_Gen] showed 1.5 nM (2 of 6 replicates). With GFDLNSYGIS / VIYSDGRRTFYIDQVK / GKAAGTFDS [GP_Gen] the result was 710 pM (6 of 6 replicates).

Variant GFSLNEYGIS / VIYSDGRRTFYIDDVK / GGHAGTFDS [Ctrl] showed 1.0 nM (6 of 6 replicates). Variant GFTLNSYGIS / VIYSDGIRTFYGDDVK / GRAALTFDS [Ctrl] showed no signal (0 of 6 replicates). Variant GFGLNSYGIS / VIYSDGRRTFYKDSVK / GQTAGTFDS [GPLM_Gen] showed 6.6 nM (6 of 6 replicates). Variant GFSLNDYGIS / VIYSDGRRTVYIDSVK / GRAAGTFDS [GPLM_HC] gave no signal (0 of 6 replicates). For GFNLNSYGIS / VIYSDGRRTFYGDSVK / GREAGTFDT [GPLM_Gen], the assay gave 910 pM (6 of 6 replicates). With GFNLNSYGIS / VIYSDGRRTFYSDSVK / GRTAGTFDS [GPLM_Gen] the result was 1.2 nM (6 of 6 replicates). For GFTLADYGIS / VIYSDGRRTAYGDSVK / GRAAGTFDS [Ctrl], the assay gave 5.8 nM (6 of 6 replicates).

For GFTLNEYGIS / VIYSDGRRTFYGDSVK / GRHAGTFDD [GP_HC], the assay gave 34 nM (6 of 6 replicates). Variant GFDLNSYGIS / VIYSDGRRTFYGDSVK / GRAAWTFQS [GP_HC] gave no signal (0 of 6 replicates). Variant GFHLNSYGIS / VIYSDGRRTFYIDSVK / GQTAGTFDS [GPLM_Gibbs] showed 28 nM (1 of 6 replicates). Variant GFSLNQYGIS / VIYSDGRRTFYDDSVK / GRAAGTFDS [GPLM_HC] showed 44 nM (5 of 6 replicates). For GFSLNEYGIS / VIYSDGRRTFYGDNVK / GRAAGTFDS [Ctrl], the assay gave 2.6 nM (6 of 6 replicates). With GFQLNSYGIS / VIYSDGRRTFYGDNVK / GQEAGTFDS [GP_Gibbs] the result was 26 nM (4 of 6 replicates). For DFTLNQYGIS / VIYSQGDRTFYSDSVK / GRAAGFFDS [Rand], the assay gave no signal (0 of 6 replicates).

Variant GFTLNSYGIS / VIYSDGRRTFYGDSVK / GRAIGTFDY [Ctrl] showed no signal (0 of 6 replicates). With GFTLNEYGIS / VIYSDGRRTFYRDSVK / GRHAGTFDS [GP_HC] the result was 19 nM (3 of 6 replicates). For GFTLNSYGIS / VMYSDGRRTFYGDSVK / GRIAGTFDS [Ctrl], the assay gave 1.8 nM (3 of 6 replicates). Variant GFTLNEYGIS / VIYSDGMRTFYGDSVK / GRNAGTFDS [GP_Gen] showed 1.6 nM (6 of 6 replicates). With GFTLNKYGIS / VIYSDGRRTSYADSVK / GRAAGTFDS [Ctrl] the result was 210 nM (4 of 6 replicates). For GFWLNSYGIS / VIYADGRRTFYGDSVK / GKAAGTFDS [GPLM_Gen], the assay gave 8.5 nM (6 of 6 replicates). Variant GFDLNSYGIS / VIYSDGRRTAYGDRVK / GREAGTFDS [GP_Gibbs] showed 240 pM (6 of 6 replicates).

Variant GFSLNDYGIS / VIYSDGRRTFYGDSVK / GRAAGTFAS [GPLM_HC] gave 410 nM (3 of 6 replicates). For GFELNSYGIS / VIYSDGRRTFYVDSVK / GRTAGTFDT [GP_Gen], the assay gave 11 nM (6 of 6 replicates). With GFTLNSYGSS / VIYSDGRRTFYGDSVK / GRHAGTFFS [Ctrl] the result was no signal (0 of 6 replicates). For GFTLNEYGIS / VIYSDGRRTFYGDSVK / GRTAGTFSS [GPLM_Gen], the assay gave 1.9 nM (6 of 6 replicates). For GFELNSYGIS / VIYSDGRRTFYSDQVK / GQAAGTFDS [GP_Gibbs], the assay gave 9.9 nM (6 of 6 replicates). For GFTLNSYGIS / VIYSDGRRTFYGQSVK / GRAAGTFDS [Ctrl], the assay gave 22 nM (1 of 6 replicates). With GNALNSYGIS / VIYSDGMRTFYGDSVK / GRAAGTFDS [Ctrl] the result was no signal (0 of 6 replicates).

Variant GFTLNSYGIS / VIYSDGRRTFYGDSVK / GRARGTNSS [Ctrl] showed no signal (0 of 6 replicates). Variant GFQLNEYGIS / VIYSDGRRTFYGDSVK / GRAAVTFDS [GPLM_HC] showed no signal (0 of 6 replicates). Variant GFTLNDYGIS / VIYSDGRFTFYGDSVK / GRAALTFIS [Rand] gave no signal (0 of 6 replicates). For GFDLNSYGIS / VIYSDGIRTFYGDSVK / GRTAGTFDS [GP_Gen], the assay gave 1.6 nM (6 of 6 replicates). For GFNLNSYGIS / VIYSDGRRTFYGDSVK / GQEAGTFDS [Ctrl+GP_Gen], the assay gave 1.3 nM (11 of 12 replicates). With GFTLNEYGIS / VIYSDGRRTFYSDSVK / GQEAGTFDS [GP_HC] the result was 2.3 nM (6 of 6 replicates). Variant GFTLNSYGIS / VIYSDGKRTFYGTSVK / GRAADTFDS [Ctrl] showed no signal (0 of 6 replicates).

With GFTLNDYGIS / VIYSDGRRTFYGDSVK / GRTAGTFTS [GPLM_Gen] the result was 5.7 nM (6 of 6 replicates). For GFTLNSYGIS / VIYSDGRRTFYSDSVK / GMAGGTFDQ [GP_HC], the assay gave 840 pM (6 of 6 replicates). Variant GFSLNSYGIS / VIYSDGRRTFYIDSVK / GEAAGTFDS [GPLM_Gen] gave 4.2 nM (6 of 6 replicates). Variant GFDLNSYGIS / VIYSDGRRTFYGDSVK / IRNAGTFDS [Ctrl] showed no signal (0 of 6 replicates). Variant GFELNSYGIS / VIYSDGRRTFYEDSVK / GTQAGTFDS [GP_Gibbs] gave 1.5 nM (6 of 6 replicates). Variant GFELNSYGIS / VIYSDGRRTFYVDSVK / GRLAGTFDS [GP_Gen] showed 29 nM (4 of 6 replicates). For GFSLNSYGIS / VIYSDGRRTFYTDSVK / GRAAGTMDS [Ctrl], the assay gave no signal (0 of 6 replicates).

With GFDLNEYGIS / VIYADGRRTFYSDSVK / GEAAGTFDK [En_HC] the result was 110 pM (6 of 6 replicates).

Top 6 of the variants detected in all replicates, tightest first:

With GFDLNEYGIS / VIYADGRRTFYSDSVK / GEAAGTFDK [En_HC] the result was 110 pM (6 of 6 replicates).
With GFDLNSYGIS / VIYSDGRRTAYGDRVK / GREAGTFDS [GP_Gibbs] the result was 240 pM (6 of 6 replicates).
With GFDLNSYGIS / VIYSDGRRTFYIDQVK / GKAAGTFDS [GP_Gen] the result was 710 pM (6 of 6 replicates).
With GFTLNSYGIS / VIYSDGRRTFYSDSVK / GMAGGTFDQ [GP_HC] the result was 840 pM (6 of 6 replicates).
With GFNLNSYGIS / VIYSDGRRTFYGDSVK / GREAGTFDT [GPLM_Gen] the result was 910 pM (6 of 6 replicates).
With GFSLNEYGIS / VIYSDGRRTFYIDDVK / GGHAGTFDS [Ctrl] the result was 1.0 nM (6 of 6 replicates).

Data: MIT Lincoln Laboratory AlphaSeq set, Li et al. 2023, doi:10.1038/s41467-023-39022-2, as distributed in FLAb.